By CC50 is commonly meant the concentration that lowers cell viability or growth by half. Low readings indicate greater toxicity to the cells, high ones lower toxicity to the cells.

This is a selection: effects in other tests are not listed, and their absence says nothing. A value given as a limit tells only on which side of the number the result lay.

Assay [1] relates to NCI-H460. Description: Cytotoxicity against human H460 cells after 24 hrs by MTT assay. (In general: Formazan colour is commonly taken as a measure of viable cells.)
For assay [2], the system named is A-375. Description: Cytotoxicity against human A375 cells after 24 hrs by MTT assay.

The compound `CCCCCCCC(=O)O[C@H]1[C@@H](C(=O)O)CCC[C@@H]1N(CCCl)CCCl` registered a CC50 in assay [1] of over 1000 µM.
As to `CCCCCCCCCCCCCCCC(=O)O[C@H]1[C@@H](C(=O)O)CCC[C@@H]1N(CCCl)CCCl`, the CC50 in assay [2] was 311 µM; in assay [1], 298 µM.

These data come from ChEMBL document CHEMBL1240457, “Synthesis and biological evaluation of cyclic nitrogen mustards based on carnitine framework” (2010).
